Compound activity deposited in PubChem by National Center for Advancing Translational Sciences (NCATS).
TDP1 cell CPT: growth inhibition of DT40 Tdp1-/-;hTDP1 cells with camptothecin (screen for TDP1 inhibitors). chicken DT40 Tdp1-/-;hTDP1 cells + 20 nM CPT, ATP luminescence, 48 h. Potency, µM (titrated, usually from 46.2 µM), usual class: inhibitors. 12% of 420,000 active; further: nearly all actives have a fitted effect of over 55% in size
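Cell growth measured by CellTiter-Glo luminescence after a minimum 48 h, 37 C compound exposure with 20 nM CPT in Tdp1-knockout DT40 cells stably expressing hTDP1, seeded 400/well; qHTS titration format.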
TDP1 cell noCPT: qHTS for Inhibitors of human tyrosyl-DNA phosphodiesterase 1 (TDP1): qHTS in cells in absence of CPT; DT40 Tdp1-/- hTDP1 cells, no CPT, ATP luminescence, 48 h; Potency, µM (top dose mostly 46.2 µM), usual class: inhibitors; 15% of 420,000 active; AID 686978, 2013; further: nearly all actives have a fitted effect of over 55% in size
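Readout: luminescence from CellTiter-Glo after 30 min in the dark at RT. Cells: DT40 Tdp1-/- with stable hTDP1, 400/well. Exposure: compounds alone, ≥48 hr, 37 °C.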
TDP1 inh: blocks human tyrosyl-DNA phosphodiesterase 1 | Q9NUW8 | recombinant TDP1, AlphaScreen DNA substrate cleavage | Potency, µM (highest dose often 130 µM), hits mostly inhibitors | 0.28% of 350,000 active; further: nearly all actives have a fitted effect of over 40% in size
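Signal: AlphaScreen proximity between streptavidin donor and anti-FITC acceptor beads on intact substrate. Reaction: Tdp1 1 nM, substrate 15 nM final, 5 min RT after 15 min compound preincubation.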
uPA generation: cell surface uPA generation inhibition | 0.31% of 330,000 active | AID 540303 | Potency, µM (highest dose often 38.3 µM), usual class: inhibitors | cell surface uPA generation assay, qHTS; active means well fitted inhibition curve with a large enough effect; inconclusive means small, poorly fitted or top-dose-only effect; inactive means no such curve, though single readings can be large or run the other way; tested in mouse RAW 264.7 cells; further: nearly all actives have a fitted effect of over 55% in size
miR-21 reporter: raises the signal of a miR-21 reporter; 340,000 tested, under 10 active; HeLa miR-21 FLuc reporter, luciferase, 48 h; Potency, µM (highest dose often 38.3 µM); active = well fitted rising curve with a large enough effect; inconclusive = small, poorly fitted or top-dose-only effect; inactive = no such curve, though single readings can be large or run the other way;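 also: miR-21 action dims this reporter so a rising signal means less miR-21 action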
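Compounds were titrated across several concentrations (up to approximately 40 uM) and incubated 48 hours with HeLa miR-21-FLuc reporter cells (miR-21 target sequence downstream of FLuc, endogenous miR-21). Readout was firefly luciferase luminescence after lytic detection reagent.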
Numbers stand for hits. Compounds with a hit are over-represented: about 16% of the library has one in this group of screens. Unless noted, the call rests on the fitted dose curve; in most records, active means well fitted curve in the direction sought with a large enough effect; inconclusive means small, poorly fitted or top-dose-only effect, or another doubt; inactive means no such curve, though single readings can be large; an effect the other way counts as inactive or inconclusive.

Screening CCOc1ccc(-c2c(=O)n(OCc3nc4ccccc4[nH]3)c3ccccc3[n+]2[O-])cc1 returned TDP1 cell CPT inconclusive, TDP1 cell noCPT 23µM, TDP1 inh inactive, uPA generation inactive and miR-21 reporter inactive.
`COc1ccc(-c2c(=O)n(OCc3nc4ccccc4[nH]3)c3ccccc3[n+]2[O-])cc1` gave TDP1 cell CPT inactive, TDP1 cell noCPT inconclusive, TDP1 inh inactive, uPA generation inactive and miR-21 reporter inactive.
For CCOc1ccc(OCC)c(-c2c(=O)n(OCc3ccccc3Br)c3ccccc3[n+]2[O-])c1 the results were TDP1 cell CPT 10µM, TDP1 cell noCPT 8.9µM, TDP1 inh inactive and miR-21 reporter inactive.
For CCOc1ccc(-c2c(=O)n(OCc3ccccc3Br)c3ccccc3[n+]2[O-])c(OCC)c1 the results were TDP1 cell CPT inconclusive, TDP1 cell noCPT 23µM, TDP1 inh inactive, uPA generation inactive and miR-21 reporter inactive.
Screening Cn1cccc1-c1cc2n(n1)CCC(=O)N2CCCC(=O)NCc1cccc(Cl)c1 returned TDP1 cell CPT inactive, TDP1 cell noCPT inactive, TDP1 inh inactive and miR-21 reporter inactive.
`Cc1ccc(-c2n[nH]c(=S)n2/N=C/c2c(C)nn(-c3ccccc3)c2C)cc1` gave TDP1 cell CPT inconclusive, TDP1 cell noCPT 16µM, TDP1 inh inactive, uPA generation inactive and miR-21 reporter inactive.
`Cc1ccccc1-c1n[nH]c(=S)n1/N=C/c1c(C)nn(-c2ccccc2)c1C` gave TDP1 cell CPT inactive, TDP1 cell noCPT inactive, TDP1 inh inactive, uPA generation inactive and miR-21 reporter inactive.
Oc1c(Br)cc(/C=N/n2c(-c3ccccc3)n[nH]c2=S)cc1Br was read as TDP1 cell CPT inactive, TDP1 cell noCPT inconclusive, TDP1 inh 25µM, uPA generation inactive and miR-21 reporter inactive.
S=c1[nH]nc(-c2cc(-c3ccccc3)n[nH]2)n1/N=C/C(Br)=C/c1ccccc1 was read as TDP1 cell CPT 2.9µM, TDP1 cell noCPT 2.6µM, TDP1 inh inactive, uPA generation inactive and miR-21 reporter inconclusive.
`Cc1cccc(/C=N/n2c(-c3cc(-c4ccccc4)n[nH]3)n[nH]c2=S)c1` gave TDP1 cell CPT 16µM, TDP1 cell noCPT inconclusive, TDP1 inh inactive, uPA generation inactive and miR-21 reporter inactive.
`CC(C)Oc1ccc(C(=O)N2CCN(c3nc4c(F)cc(F)cc4s3)CC2)cc1` gave TDP1 cell CPT inactive, TDP1 cell noCPT inconclusive, TDP1 inh inactive and miR-21 reporter inactive.
Screening Cc1ccc(CN2CCNC(=O)C2CC(=O)NCCCn2cccn2)o1 (stereo unspecified) returned TDP1 cell CPT inactive, TDP1 cell noCPT inactive, TDP1 inh inactive, uPA generation inactive and miR-21 reporter inactive.
COC(=O)c1ccc(Cl)cc1N(Cc1c(F)cccc1Cl)S(C)(=O)=O was read as TDP1 cell CPT inconclusive, TDP1 cell noCPT inconclusive, TDP1 inh inactive, uPA generation inactive and miR-21 reporter inactive.
For S=c1[nH]nc(-c2ccccc2)n1/N=C/c1ccc(-c2ccccc2Cl)o1 the results were TDP1 cell CPT inconclusive, TDP1 cell noCPT 13µM, TDP1 inh inactive, uPA generation inconclusive and miR-21 reporter inconclusive.
For S=c1[nH]nc(-c2cccc(Cl)c2)n1/N=C/c1ccc(-c2ccccc2Br)o1 the results were TDP1 cell CPT inconclusive, TDP1 cell noCPT inconclusive, TDP1 inh inactive, uPA generation inactive and miR-21 reporter inactive.
Screening O=C(O)C1=C[C@H](C2CC2)C[C@H](OCCCCO)O1 returned TDP1 cell CPT inactive, TDP1 cell noCPT inactive, TDP1 inh inactive, uPA generation inactive and miR-21 reporter inactive.
For O=C(NC1CC2CCCC(C1)N2S(=O)(=O)c1ccccc1)C1CCCCC1 (stereo unspecified) the results were TDP1 cell CPT inconclusive, TDP1 cell noCPT inconclusive, TDP1 inh inactive, uPA generation inactive and miR-21 reporter inactive.
`O=C(CN1C2CCCC1CC(NC(=O)C1CCCCC1)C2)Nc1ccccc1` (stereo unspecified) gave TDP1 cell CPT 15µM, TDP1 cell noCPT inconclusive, uPA generation inactive and miR-21 reporter inactive.
Screening COC(=O)C1=CN(Cc2ccc(OC)c(OC)c2)C=C(C(=O)OC)C1c1cccc(O)c1 returned TDP1 cell CPT inconclusive, TDP1 cell noCPT inconclusive, uPA generation inactive and miR-21 reporter inactive.
For Cc1ccc(NC2=NC3(CCCC3)N=C(N)N2)c(C)c1 the results were TDP1 cell CPT 2.9µM, TDP1 cell noCPT 3.7µM, TDP1 inh inactive, uPA generation inactive and miR-21 reporter inactive.
For Cc1ccc(NC2=NC3(CCCCC3)N=C(N)N2)c(C)c1 the results were TDP1 cell CPT 23µM, TDP1 cell noCPT inconclusive, TDP1 inh inactive and miR-21 reporter inactive.
Cc1nc(NC2=NCN(Cc3ccc4c(c3)OCO4)CN2)nc2ccccc12 was read as TDP1 inh inactive and miR-21 reporter inactive.
For COc1cccc(C(=O)NCCCNC(=O)c2cccnc2)c1 the results were TDP1 cell CPT inactive, TDP1 cell noCPT inactive, uPA generation inactive and miR-21 reporter inactive.
Screening CCOC(=O)c1ccc(NC(=O)C2CCCN(c3cnccn3)C2)cc1 (stereo unspecified) returned TDP1 cell CPT inconclusive, TDP1 cell noCPT 15µM, TDP1 inh inactive, uPA generation inactive and miR-21 reporter inactive.
Cc1ccc(NC(=O)C2CCCN(c3cnccn3)C2)cc1Cl (stereo unspecified) was read as TDP1 cell CPT inconclusive, TDP1 cell noCPT 23µM, TDP1 inh inactive and miR-21 reporter inactive.
For CCCc1ccc(NC(=O)C2CCN(c3cnccn3)CC2)cc1 the results were TDP1 cell CPT 16µM, TDP1 cell noCPT 23µM, TDP1 inh inactive, uPA generation inactive and miR-21 reporter inconclusive.
Screening Cc1ccc(NC(=O)C2CCN(c3cnccn3)CC2)cc1 returned TDP1 cell CPT inactive, TDP1 cell noCPT inactive, TDP1 inh inactive, uPA generation inactive and miR-21 reporter inactive.
`CC(C)Cn1c(N)c(C(=O)COC(=O)c2nccnc2N)c(=O)n(C)c1=O` gave TDP1 cell CPT inactive, TDP1 cell noCPT inactive, TDP1 inh inactive and uPA generation inactive.
For COc1ccc(Nc2nnc(SCC(=O)NC3CCS(=O)(=O)C3)s2)cc1 (stereo unspecified) the results were TDP1 cell CPT inactive, TDP1 cell noCPT inactive, TDP1 inh inactive and uPA generation inactive.
Screening Cc1ccc(C)c(OCC(O)CN2CCN(CCN3C(=O)c4cccc5cccc(c45)C3=O)CC2)c1 (stereo unspecified) returned TDP1 cell CPT 16µM, TDP1 cell noCPT 18µM, TDP1 inh inactive, uPA generation inactive and miR-21 reporter inactive.
`CC(=O)c1ccccc1OCC(O)CN1CCN(CCN2C(=O)c3cccc4cccc(c34)C2=O)CC1` (stereo unspecified) gave TDP1 cell CPT 6.5µM, TDP1 cell noCPT 6.5µM, TDP1 inh inactive, uPA generation inactive and miR-21 reporter inactive.
